This is an account of results in patent publication US20210253697A1 (Novo Nordisk, published 2021).

The chains behind the UniProt entries cited, without tags or fusion partners. Residues count along the entry.
UniProt Q9NP99, 21-200 limits assumed: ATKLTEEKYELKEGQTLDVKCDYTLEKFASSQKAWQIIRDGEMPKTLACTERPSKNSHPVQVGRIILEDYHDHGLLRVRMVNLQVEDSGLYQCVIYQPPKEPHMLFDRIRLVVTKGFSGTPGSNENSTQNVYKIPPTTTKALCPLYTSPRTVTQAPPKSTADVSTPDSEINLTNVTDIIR

Assay [1] has as its target T1, cynomolgus TREM-1 (cTREM-1 protein, SPR analyte of Examples 9 and 11) (cynomolgus monkey).
T1 construct: Soluble analyte; also called cyno TREM1
T1 chain: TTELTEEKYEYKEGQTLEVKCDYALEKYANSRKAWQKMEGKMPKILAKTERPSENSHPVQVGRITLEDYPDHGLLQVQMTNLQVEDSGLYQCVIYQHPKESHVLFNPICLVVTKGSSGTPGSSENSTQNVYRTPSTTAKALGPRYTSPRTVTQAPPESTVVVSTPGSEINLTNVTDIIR
The experiment in a line: SPR, mAb captured, cTREM-1 analyte.

The target of assay [2] is T2, human TREM-1 (hTREM-1 protein, SPR analyte of Examples 9 and 11) (human, UniProt Q9NP99 21-200, limits assumed).
T2 construct: Soluble analyte
Put plainly: SPR, mAb captured, hTREM-1 analyte.

B1: mAb 0121 (antibody, V domains shown)
VH: EVQLVESGGGLVQPGGSLKLSCAASGFTFSTYAMHWVRQASGKGLEWVGRIRTKSSNYATYYAASVKGRFTISRDDSKNTAYLQMNSLKTEDTAVYYCVRDMGQRRQFAYWGQGTLVTVSS
VL: DIVMTQSPDSLAVSLGERATINCRASESVDTFDYSFLHWYQQKPGQPPKLLIYRASNLESGVPDRFSGSGSGTDFTLTISSLQAEDVAVYYCQQSNEDPYTFGQGTKLEIK
notes: recombinant; also called 14F113/14F69 hz variant HC T93V; 14F113 hz variant HC T93V
In assay [1], B1 showed a koff of 0.00013 s⁻¹ and an on-rate constant (kon) of 130000 M⁻¹ s⁻¹. In assay [2], this molecule had a Kd of 0.63 nM, a dissociation rate constant (koff) of 0.0017 s⁻¹ and a kon of 2.8e+06 M⁻¹ s⁻¹.
